{
  "source": "patent US8328898B2",
  "about": "“Environment-friendly carbon-nano synergistic complex fertilizers” (priority 2007, dated 2012)",
  "key": {"[1]": {"assay": "Ion concentration ratio HCO3^−/H2CO3 in 1 mol/L solution (Experiment 4)", "format": "physicochemical", "settings": "298k", "from_the_text": "The amount of HCO3^−/H2CO3 existing in soil is important for promoting root development, improving the environment around the roots, and is playing an important role of buffering by reducing the pH increased by fertilizer application in soil. Therefore, determination of HCO3^−/H2CO3 ratios could sufficiently show whether the soil conditions are good or not. Experimental results in Table 4 indicate that the amount of H2CO3 is higher in soil applied with carbon-nano synergistic ammonium bicarbonate than that in soil applied with ammonium bicarbonate, and this higher H2CO3 amount makes HCO3^−/H2CO3 ratio reduce. […] Since the evaporation loss of ammonia is highest on the 15th day after fertilizer application, during this period, lower pH value caused by stabilized H2CO3 in soil could obviously reduce the evaporation of ammonia and the emission of green house gas CO2, and then increase the nitrogen utilization ratio, and prolong the longevity of the fertilizer."}, "[2]": {"assay": "Ion concentration ratio HCO3^−/CO3^= in 1 mol/L solution (Experiment 3)", "format": "physicochemical", "settings": "298k", "from_the_text": "Carbonate ion concentration ratio of HCO3^−/CO3^=/% in soil is affected obviously by carbon-nano synergistic ammonium bicarbonate. […] The emission process of CO2 is the alkalization process of HO^− entering the solution. When the forming amount of CO3^= in soil solution increases, the emission loss of CO2 increases, and the ratio of HCO3^−/CO3^= reduces comparatively; when the stability of HCO3^−is required to be enhanced, the ratio of HCO3^−/CO3^= increases comparatively."}, "[3]": {"assay": "N2O—N annual emission in the field, 280 days accumulated data (Experiment 8, Table 10)"}, "[4]": {"assay": "pH changes in 1 mol/L solution (Experiment 5)", "format": "physicochemical", "settings": "298K"}},
  "data": [
    {"substance": "ammonium bicarbonate [ABC]", "values": [
      {"measurement": "HCO3^−/H2CO3 ion concentration ratio", "setting": "[1]; test time 0 d", "result": 20},
      {"measurement": "HCO3^−/H2CO3 ion concentration ratio", "setting": "[1]; test time 0.125 d", "result": 33},
      {"measurement": "HCO3^−/H2CO3 ion concentration ratio", "setting": "[1]; test time 0.25 d", "result": 100},
      {"measurement": "HCO3^−/H2CO3 ion concentration ratio", "setting": "[1]; test time 1 d", "result": 370},
      {"measurement": "HCO3^−/H2CO3 ion concentration ratio", "setting": "[1]; test time 2 d", "result": 590},
      {"measurement": "HCO3^−/H2CO3 ion concentration ratio", "setting": "[1]; test time 3 d", "result": 751},
      {"measurement": "HCO3^−/H2CO3 ion concentration ratio", "setting": "[1]; test time 6 d", "result": 888},
      {"measurement": "HCO3^−/H2CO3 ion concentration ratio", "setting": "[1]; test time 9 d", "result": 937},
      {"measurement": "HCO3^−/H2CO3 ion concentration ratio", "setting": "[1]; test time 13 d", "result": 823},
      {"measurement": "HCO3^−/H2CO3 ion concentration ratio", "setting": "[1]; test time 16 d", "result": 826},
      {"measurement": "HCO3^−/H2CO3 ion concentration ratio", "setting": "[1]; test time 19 d", "result": 804},
      {"measurement": "HCO3^−/CO3^= ion concentration ratio", "setting": "[2]; test time 0 d", "result": 380},
      {"measurement": "HCO3^−/CO3^= ion concentration ratio", "setting": "[2]; test time 0.125 d", "result": 230},
      {"measurement": "HCO3^−/CO3^= ion concentration ratio", "setting": "[2]; test time 0.25 d", "result": 80},
      {"measurement": "HCO3^−/CO3^= ion concentration ratio", "setting": "[2]; test time 1 d", "result": 21},
      {"measurement": "HCO3^−/CO3^= ion concentration ratio", "setting": "[2]; test time 2 d", "result": 13.3},
      {"measurement": "HCO3^−/CO3^= ion concentration ratio", "setting": "[2]; test time 3 d", "result": 10.4},
      {"measurement": "HCO3^−/CO3^= ion concentration ratio", "setting": "[2]; test time 6 d", "result": 8.6},
      {"measurement": "HCO3^−/CO3^= ion concentration ratio", "setting": "[2]; test time 9 d", "result": 8.2},
      {"measurement": "HCO3^−/CO3^= ion concentration ratio", "setting": "[2]; test time 13 d", "result": 9.3},
      {"measurement": "HCO3^−/CO3^= ion concentration ratio", "setting": "[2]; test time 16 d", "result": 9.3},
      {"measurement": "HCO3^−/CO3^= ion concentration ratio", "setting": "[2]; test time 19 d", "result": 9.5},
      {"measurement": "Average of N2O—N annual emission flux", "setting": "[3]", "result": 70.93, "unit": "μg N2O/m^3-h"},
      {"measurement": "N2O—N annual emission flux range", "setting": "[3]", "result": "−70-1291 μg N2O/m^3-h"},
      {"measurement": "N2O—N emission flux/nitrogen fertilizer applied", "setting": "[3]", "result": 1.36, "unit": "%"},
      {"measurement": "pH value", "setting": "[4]; test time 0 d", "result": 7.668},
      {"measurement": "pH value", "setting": "[4]; test time 0.125 d", "result": 7.893},
      {"measurement": "pH value", "setting": "[4]; test time 0.25 d", "result": 8.350},
      {"measurement": "pH value", "setting": "[4]; test time 1 d", "result": 8.936},
      {"measurement": "pH value", "setting": "[4]; test time 2 d", "result": 9.128},
      {"measurement": "pH value", "setting": "[4]; test time 3 d", "result": 9.242},
      {"measurement": "pH value", "setting": "[4]; test time 6 d", "result": 9.315},
      {"measurement": "pH value", "setting": "[4]; test time 9 d", "result": 9.338},
      {"measurement": "pH value", "setting": "[4]; test time 13 d", "result": 9.242},
      {"measurement": "pH value", "setting": "[4]; test time 16 d", "result": 9.283},
      {"measurement": "pH value", "setting": "[4]; test time 19 d", "result": 9.272}
    ]}
  ]
}
